Data published in paper PMC6874179, “Development of Macrocycle Kinase Inhibitors for ALK2 Using Fibrodysplasia Ossificans Progressiva‐Derived Endothelial Cells” (JBMR Plus, 2019).

Biological target: T1, caALK2 (Homo sapiens, UniProt Q04771, Q207D)
T1 construct: expressed in transfected cells; host or cells: C2C12 murine myofibroblast cells
T1 sequence (Q04771 21-509 Q207D): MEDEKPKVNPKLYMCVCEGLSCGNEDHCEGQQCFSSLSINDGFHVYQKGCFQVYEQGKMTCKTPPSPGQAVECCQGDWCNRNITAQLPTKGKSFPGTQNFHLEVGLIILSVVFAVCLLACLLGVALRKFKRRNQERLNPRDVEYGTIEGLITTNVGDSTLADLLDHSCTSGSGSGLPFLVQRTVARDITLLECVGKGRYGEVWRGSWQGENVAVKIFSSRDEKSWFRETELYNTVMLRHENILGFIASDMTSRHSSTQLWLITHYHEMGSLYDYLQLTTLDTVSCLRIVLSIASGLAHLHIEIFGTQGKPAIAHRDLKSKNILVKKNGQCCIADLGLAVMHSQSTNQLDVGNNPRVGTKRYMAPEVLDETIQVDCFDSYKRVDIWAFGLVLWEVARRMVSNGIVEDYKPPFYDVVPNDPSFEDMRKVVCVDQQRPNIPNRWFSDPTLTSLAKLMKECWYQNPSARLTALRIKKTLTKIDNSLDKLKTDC
Test: BRE-LUC with constitutive active ALK2 in C2C12 cells
Type: cell-based
Details: compound 0.5μM 16 hours
Protocol: Compounds were added for 16 hours at 0.5μM before luciferase activity was measured.
For luciferase reporter assays, cells were seeded in 24-well plates and transfected with DharmaFECT Duo (Fisher Scientific, Landsmeer, The Netherlands), following the recommendations of the manufacturer. 48 hours after transfection the cells were harvested and lysed. […] Each transfection mixture was equalized with empty vector when necessary and every experiment was performed in triplicate.

## c1ccc2c(-c3cnn4cc(-c5ccc(N6CCNCC6)cc5)cnc34)ccnc2c1 [LDN-193189, reference compound]
  Inhibition of caALK2-driven BRE-LUC activity: significantly inhibited
